What was measured:
[1] = target: human recombinant IRAK4 protein (Homo sapiens (Human), UniProt Q9NWZ3); assay: IRAK4 enzyme assay (mass spectrometry readout); details: read-out: IRAK4 Enzyme IC50; 3 mM ATP, 0.2 nM enzyme; geometric mean of at least n=2, * single experiment
Description: Potency of IRAK4 Inhibitor Compounds in IRAK4 Enzyme Assay
The inhibitory activity of compounds against IRAK4 were determined in an enzymatic assay using mass spectrometry readout. Ten point half-log compound concentration response curves, with a top concentration of 1 μM or 10 μM, were generated from 10 mM stocks of compound solubilized in DMSO using an Echo 655 (Labcyte Inc) and added to 384 well assay plates (Greiner #781280). To the assay plates, 10 μL of human recombinant IRAK4 protein (Life Technologies #PV4002) diluted to a final concentration of 0.2 nM in assay buffer (50 mM Tris-HCl pH 7.4, 10 mM MgCl, 5 mM glutathione, 0.01% BSA, 3 mM ATP) was added. The enzyme was incubated with the compounds at room temperature for 15 minutes before a peptide substrate ([…], Innovagen custom synthesis, 10 mM in DMSO) was added to each well to a final concentration of 10 μM using an Echo 655 (Labcyte Inc). After two hours at room temperature, the reaction was stopped with 90 μL of 0.4% formic acid (Merck #33015). The unphosphorylated and phosphorylated peptide were measured by LC-MS/MS on a Waters TQ-S mass spectrometer. Peaks were integrated using the TargetLynx software and the ratios between phosphorylated and unphosphorylated peptides were calculated. Curves were fitted and compound potencies determined in Genedata Screener 15 (Genedata AG). […]

Protein sequences, listed by entry. Tags and fused reporters are not part of them.
UniProt Q9NWZ3, whole entry: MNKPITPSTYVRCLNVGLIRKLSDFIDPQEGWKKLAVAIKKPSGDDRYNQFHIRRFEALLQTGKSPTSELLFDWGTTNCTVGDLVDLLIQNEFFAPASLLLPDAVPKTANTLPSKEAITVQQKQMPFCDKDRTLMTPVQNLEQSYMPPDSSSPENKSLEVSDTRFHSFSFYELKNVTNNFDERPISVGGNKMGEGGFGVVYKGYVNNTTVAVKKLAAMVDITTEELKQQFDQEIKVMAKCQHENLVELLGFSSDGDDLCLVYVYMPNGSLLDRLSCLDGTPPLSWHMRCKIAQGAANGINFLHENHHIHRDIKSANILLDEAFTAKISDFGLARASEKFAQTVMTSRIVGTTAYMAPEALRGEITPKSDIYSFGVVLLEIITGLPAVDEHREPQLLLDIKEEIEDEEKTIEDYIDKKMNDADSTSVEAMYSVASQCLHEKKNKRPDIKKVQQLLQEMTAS

[2] = target: IRAK4 auto-phosphorylation (Homo sapiens (Human), UniProt Q9NWZ3); assay: IRAK4 phosphorylation cell assay in IL-1β-stimulated Karpas-299 cells; details: read-out: IRAK4 Cell IC50, IL-1β 22.7 ng/mL, pIRAK4 (Thr345/Ser346), geometric mean of at least 2 experiments
Description: IRAK4 Phosphorylation Cell Assay
The activation of IRAK4 by TLR or IL-1R ligands leads to IRAK4 auto-phosphorylation, which can be prevented by IRAK4 kinase inhibitors. The effect of IRAK4 inhibitor compounds on IRAK4 auto-phosphorylation was assessed in IL-1β-stimulated Karpas-299 cells as a measurement of cellular potency. Karpas-299 cells were cultured in RPMI 1640 (Gibco 61870-010) containing 10% FBS (Gibco #10270). Cells were plated at 2×10^4 cells per well in poly-D-lysine coated 384 well plates (Corning #356663) to which compounds had been added at various concentrations (10 point half log dose response with a final top concentration of 30 μM) using an Echo 655 (Labcyte Inc). Cells were centrifuged (250 g, 4 mins), incubated at 37° C. for 1 h, then stimulated with 22.7 ng/mL recombinant IL-1β (R&D Systems, #201-LB-025) at 37° C. for 10 mins, followed by fixation in 4% paraformaldehyde for 10 mins and permeabilization in ice-cold 70% MeOH for 30 mins. Cells were washed twice with phosphate-buffered saline (PBS) on a BlueWasher (BlueCatBio) then blocked with PBS containing 10% FBS for 20 mins. […] Images were analysed in Columbus (PerkinElmer) and the fluorescence intensity per cell from the secondary antibody was quantified. The quantified data were analysed in Genedata Screener 15 (Genedata AG). […]

[3] = tested on: IL-1β stimulated IL-8 release in hTHP1 cells; assay: IL-1β-induced IL-8 release in human THP-1 monocyte cell line; details: read-out: hTHP1, IL1β stim, IL8 release red. IC50; THP-1 cells, IL-1β 1.8 ng/mL, 18 h; geometric mean of at least n=2, * n = 1
Description: Effect of IRAK4 Inhibitors on IL-1β-Induced Cytokine Release in Human THP-1 Monocyte Cell Line
THP-1 cells were cultured in RPMI 1640 (Gibco 72400-021) containing 10% FBS (Gibco 10270-106), 1 mM Na-pyruvate (Gibco 11360-070) and 100 U/mL Penicillin-Streptomycin (Gibco 15140-122). Cells were plated at 5×10^4 cells per well in 384 well Echo certified plates (Labcyte PPT-0200) to which compounds had been added at various concentrations (10 point half log dose response with a final top concentration of 10 μM) using an Echo 655 (Labcyte Inc). The plate was incubated for 1 h at 37° C., then recombinant […] (R&D Systems 201-LB-025/CF) was added to a final concentration of 1.8 ng/mL. The plates were incubated at 37° C. for 18h. The plates were centrifuged at 250×g for four minutes, then 1.6 μL of the cell supernatant was transferred to a white low volume 384 well plate (Greiner #784075) using acoustic dispensing on an Echo 655. […] Afterwards, 200 nL of donor bead solution (5 mg/mL) was added, the plate sealed and briefly centrifuged, then incubated for 1 h before being read on an Envision plate reader to allow determination the concentration of IRAK4 inhibitor required to effect a 50% reduction in the amount of IL-8 released following IL-1β stimulation in THP1 cells (Table 2). The quantified data were analysed in Genedata Screener 15 (Genedata AG). […]

Row | Structure (SMILES) | IC50 [1] [µM] | IC50 [2] [µM] | IC50 [3] [µM]
1 | COc1cc2nn(C3CCC4(CCC(=O)N4C)CC3)cc2cc1C(=O)Nc1cnn2cccnc12 (single isomer, unassigned) [Example 11] | > 1.01 | > 30 | –
2 | COc1cc2nn(C3CCC4(CCC(=O)N4C)CC3)cc2cc1C(=O)Nc1cnn2cccnc12 (single isomer, unassigned) [Example 12] | 0.001 | 0.033 | 0.029

From patent publication US11866405B2, “Substituted indazoles as IRAK4 inhibitors” (AstraZeneca AB, priority 2020, dated 2024)
